The data set concerns the target human MDR1 P-gp (Homo sapiens (Human), UniProt P08183). The data set is described as follows: MDCK assay: efflux in MDCK cells transfected with the human MDR1 gene (assay 3). Type of data set: in vitro ADME. Conditions: MDCK-MDR1 cell monolayers, pH 7.4, 37° C., read-out: MDCK efflux ratio (BA/AB). The procedure: C. Assessment of Efflux in Madin-Darby Canine Kidney Cells Transfected with the Human MDR1 Gene (MDCK Assay) (Assay 3)
Apparent permeability coefficients (PE) of the compounds across the MDCK-MDR1 cell monolayers are measured (pH 7.4, 37° C.) in apical-to-basal (AB) and basal-to-apical (BA) transport direction. AB permeability (PEAB) represents drug absorption from the blood into the brain and BA permeability (PEBA) drug efflux from the brain back into the blood via both passive permeability as well as active transport mechanisms mediated by efflux and uptake transporters that are expressed on the MDCK-MDR1 cells, predominantly by the overexpressed human MDR1 P-gp. The compounds are assigned to permeability/absorption classes by comparison of the AB permeabilities with the AB permeabilities of reference compounds with known in vitro permeability and oral absorption in the human. Identical or similar permeabilities in both transport directions indicate passive permeation, vectorial permeability points to additional active transport mechanisms. Higher PEBA than PEAB indicates the involvement of active efflux mediated by MDR1 P-gp. Active transport is concentration-dependently saturable.
MDCK-MDR1 cells (1-2×10e5 cells/1 cm2 area) are seeded on filter inserts (Costar transwell polycarbonate or PET filters, 0.4 μm pore size) and cultured (DMEM) for 7 days. […]

Sequences of proteins named here, by UniProt entry; tags and fusion partners are left off.
UniProt P08183, whole entry: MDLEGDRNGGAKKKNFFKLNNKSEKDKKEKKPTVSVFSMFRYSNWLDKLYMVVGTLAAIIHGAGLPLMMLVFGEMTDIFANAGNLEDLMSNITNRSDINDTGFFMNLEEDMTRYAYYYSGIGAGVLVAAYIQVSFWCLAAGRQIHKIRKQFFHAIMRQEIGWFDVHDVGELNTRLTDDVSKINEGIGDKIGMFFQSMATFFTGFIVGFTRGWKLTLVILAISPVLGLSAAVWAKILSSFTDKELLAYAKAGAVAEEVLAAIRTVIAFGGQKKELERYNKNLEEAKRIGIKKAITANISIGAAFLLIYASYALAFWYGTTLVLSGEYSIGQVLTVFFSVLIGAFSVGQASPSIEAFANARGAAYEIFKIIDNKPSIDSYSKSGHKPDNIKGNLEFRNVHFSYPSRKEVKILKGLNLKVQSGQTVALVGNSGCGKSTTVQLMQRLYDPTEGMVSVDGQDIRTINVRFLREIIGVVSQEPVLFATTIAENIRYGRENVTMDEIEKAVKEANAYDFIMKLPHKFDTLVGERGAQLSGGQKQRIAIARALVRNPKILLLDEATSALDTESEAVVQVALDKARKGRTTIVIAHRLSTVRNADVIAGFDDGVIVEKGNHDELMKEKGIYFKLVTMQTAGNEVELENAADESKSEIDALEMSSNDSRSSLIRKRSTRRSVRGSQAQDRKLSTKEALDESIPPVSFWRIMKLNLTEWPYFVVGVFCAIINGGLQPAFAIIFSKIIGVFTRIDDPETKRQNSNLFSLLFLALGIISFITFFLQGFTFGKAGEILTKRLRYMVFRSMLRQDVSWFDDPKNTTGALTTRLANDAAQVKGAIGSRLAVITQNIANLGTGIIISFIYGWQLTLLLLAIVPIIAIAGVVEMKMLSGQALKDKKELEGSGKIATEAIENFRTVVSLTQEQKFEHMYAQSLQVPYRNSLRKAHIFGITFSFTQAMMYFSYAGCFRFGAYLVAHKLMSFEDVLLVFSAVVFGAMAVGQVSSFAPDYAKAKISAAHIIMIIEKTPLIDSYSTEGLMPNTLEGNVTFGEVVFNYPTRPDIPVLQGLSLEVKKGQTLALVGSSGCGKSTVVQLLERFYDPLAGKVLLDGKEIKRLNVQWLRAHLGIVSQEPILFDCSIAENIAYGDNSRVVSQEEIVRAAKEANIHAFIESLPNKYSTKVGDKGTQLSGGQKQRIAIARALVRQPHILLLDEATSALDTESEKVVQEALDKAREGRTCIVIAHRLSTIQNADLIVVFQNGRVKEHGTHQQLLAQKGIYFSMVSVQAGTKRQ

For the molecule `CC(C)(C#N)c1cc(NC(=O)[C@@H]2CCCN2C2CCOCC2)on1` [Example 6, (S)-1-(Tetrahydro-pyran-4-yl)-pyrrolidine-2-carboxylic acid[3-(cyano-dimethyl-methyl)-isoxazol-5-yl]-amide], the efflux ratio came out at 1.

Values taken from US10112934B2, “(Cyano-dimethyl-methyl)-isoxazoles and -[1,3,4]thiadiazoles” (Centrexion Therapeutics Corporation, priority 2013, dated 2018).
